According to patent US20240131022A1 (published 2024):

What was measured:
[1] = tested on: rats, fentanyl-induced overdose model; test: Cold ethanol tail flick test (TFT), maximum possible analgesia; type: in vivo, Rattus norvegicus, Wistar; details: for percent of maximum possible analgesia (% MPA): 40 min after intervention, single agents; for PT + 40 TFT: 40 minutes after fentanyl
[2] = tested on: fentanyl-induced overdose in rats; details: for full recovery time: 1.24 umol/kg; for full recovery time / mean overdose reversal time / mean reversal time: intranasal; for mean reversal time: equimolar basis; for Average total recovery time: n=5; for Average recovery time: NB 0.1 mg/kg IN
[3] = tested on: rats, fentanyl-induced overdose model; test: Respiratory rate and RR AUC in fentanyl-induced overdose model; type: in vivo, Rattus norvegicus, Wistar; details: compared to the naloxone or NB33 alone groups

**Q.** For `C=CCN1CC[C@]23c4c5ccc(O)c4O[C@H]2C(=O)CC[C@@]3(O)[C@H]1C5`, which “percent of maximum possible analgesia (% MPA)” value [1] is on record?
**A.** Its value is 5%.

**Q.** And the full recovery time [2]?
**A.** Its full recovery time is 96 ± 24 s.

**Q.** What about the “mean overdose reversal time” value ([2]; NX alone 0.1 mg/kg) of the same compound?
**A.** Its value is 11.4 ± 2.7 min.

**Q.** And the “mean overdose reversal time” value ([2]; NX alone 0.2 mg/kg)?
**A.** The value was 4.8 ± 1.0 min.

**Q.** And the mean reversal time ([2]; high dose 0.62 umol/kg)?
**A.** The mean reversal time was 288 ± 130 s.

**Q.** And the mean reversal time ([2]; low dose 0.31 umol/kg)?
**A.** The mean reversal time was 684 ± 159 s.

**Q.** What about the “Average total recovery time” value ([2]; NX 0.16 μmol/kg (0.1 mpk) IN, fentanyl 0.130 mg/kg IM) of the same compound?
**A.** The value was 684 ± 356 s.

**Q.** What about the “Average total recovery time” value ([2]; NX 0.32 μmol/kg (0.2 mpk) IN, fentanyl 0.130 mg/kg IM) of the same compound?
**A.** The value was 288 ± 130 s.

**Q.** And the “shortest time to reverse an overdose” value ([2]; naloxone alone, irrespective of the dose (FIG. 1C))?
**A.** The value was ≥ 90 s.

**Q.** Which “effectiveness as OD reversal agent” value ([2]; alone, any dose) does the source give for `C/C=C/C=C/C(=O)Oc1ccc2c3c1OC1C(O)CCC4(O)C(C2)N(CC2CCC2)CCC314` (centres unmarked) [NB33, 3-hexadienoate derivative of nalbuphine] here?
**A.** The value was “not an effective OD reversal agent at any dose”.

**Q.** And the mean reversal time ([2]; high dose 0.62 umol/kg)?
**A.** The mean reversal time was 1272 ± 278 s.

**Q.** And the mean reversal time ([2]; low dose 0.31 umol/kg)?
**A.** Its mean reversal time is 1548 ± 173 s.

**Q.** For `C=CCN1CCC23c4c5ccc(OC(=O)/C=C/C=C/C)c4OC2C(=O)CCC3(O)C1C5` (centres unmarked) [NX90, 3-hexadienoate derivative of naloxone], which “total severity of respiratory depression, RR AUC (RR×min)” value [3] is on record?
**A.** Its value is “significantly lower”.

**Q.** What about the full recovery time [2] of the same compound?
**A.** The full recovery time was 84 ± 24 s.

**Q.** And the mean reversal time ([2]; high dose 0.62 umol/kg)?
**A.** Its mean reversal time is 102 ± 58 s.

**Q.** And the Total recovery time ([2]; individual rats, NX90 0.64 μmol/kg (0.52 mpk) IN, fentanyl 0.130 mg/kg IM)?
**A.** Its Total recovery time is 180 seconds and 60 seconds (4×).

**Q.** What about the mean reversal time ([2]; low dose 0.31 umol/kg) of the same compound?
**A.** The mean reversal time was 372 ± 90 s.

**Q.** What about the “Average total recovery time” value ([2]; NX90 0.16 μmol/kg (0.13 mpk) IN, fentanyl 0.130 mg/kg IM) of the same compound?
**A.** Its value is 372 ± 201 s.

**Q.** And the “Average total recovery time” value ([2]; NX90 0.32 μmol/kg (0.26 mpk) IN, fentanyl 0.130 mg/kg IM)?
**A.** The value was 102 ± 58 s.

**Q.** And the “Average total recovery time” value ([2]; NX90 0.64 μmol/kg (0.52 mpk) IN, fentanyl 0.130 mg/kg IM)?
**A.** Its value is 84 ± 54 s.

**Q.** For `Oc1ccc2c3c1O[C@H]1[C@@H](O)CC[C@@]4(O)[C@@H](C2)N(CC2CCC2)CC[C@]314`, which “percent of maximum possible analgesia (% MPA)” value [1] is on record?
**A.** Its value is 100%.

**Q.** And the “MPA % average by sex” value ([1]; NB 0.1 mg/kg, 5 F)?
**A.** The value was 100%.

**Q.** And the “PT + 40 TFT” value ([1]; NB 0.1 mg/kg, 5 F, cutoff 40 seconds)?
**A.** Its value is >40 s.

**Q.** What about the “MPA % average by sex” value ([1]; NB 0.1 mg/kg, 5 M) of the same compound?
**A.** Its value is 100%.

**Q.** And the “PT + 40 TFT” value ([1]; NB 0.1 mg/kg, 5 M, cutoff 40 seconds)?
**A.** The value was >40 s.

**Q.** And the MPA % average ([1]; NB 0.1 mg/kg, group)?
**A.** The MPA % average was 100%.

**Q.** What about the “PT + 40 TFT” value ([1]; NB 0.1 mg/kg, group average) of the same compound?
**A.** The value was >40 s.

**Q.** And the Average recovery time ([2]; 5 F)?
**A.** The Average recovery time was 5040 s.

**Q.** What about the Average recovery time ([2]; 5 M) of the same compound?
**A.** Its Average recovery time is 5760 s.

**Q.** What about the Average recovery time ([2]; group average) of the same compound?
**A.** The Average recovery time was 5400 s.

**Q.** What about the “mean overdose reversal time” value ([2]; NB alone) of the same compound?
**A.** Its value is 90 ± 9.9 min.

**Q.** What about the “alertness recovery” value ([2]; fentanyl-induced overdose model) of the same compound?
**A.** The value was “the last or next to last reflex to recover”.

Several values for one entry are separate records, joined by “and”; a condition that tells them apart may be missing. Equal entries are not always repeated. Where two headings read alike, the source gives them in different places.
